In patent publication US20250049831A1, “ANTIVIRAL USE OF BISE[…], AND BISEPOXYLIGNAN COMPOSITION AND PREPARATION OF BISE[…]” (priority 2021, published 2025):

Tests used:
COVID-19 Delta virus = assay: Lung histopathology of mice infected with COVID-19 Delta virus (treatment); conditions: number of mice with lesion grade; Low dose (40 mg/kg); COVID-19 Delta virus infected mice
[1] = number of mice (4 lungs per group) with lesion grade, High dose (26 mg/kg), influenza virus infected mice
[2] = number of mice (4 lungs per group) with lesion grade, Low dose (13.0 mg/kg), influenza virus infected mice

| Structure (SMILES) | Interstitial pneumonia, Mild (influenza virus; mouse, in vivo, 13 mg/kg) | Interstitial pneumonia, Moderate (influenza virus; mouse, in vivo, 13 mg/kg) | Interstitial pneumonia, Severe (influenza virus; mouse, in vivo, 13 mg/kg) | Pulmonary hemorrhage, Mild (influenza virus; mouse, in vivo, 13 mg/kg) | Pulmonary hemorrhage, Moderate (influenza virus; mouse, in vivo, 13 mg/kg) | Pulmonary hemorrhage, Severe (influenza virus; mouse, in vivo, 13 mg/kg) | Interstitial pneumonia, Mild (influenza virus; mouse, in vivo, 26 mg/kg) | Interstitial pneumonia, Moderate (influenza virus; mouse, in vivo, 26 mg/kg) | Interstitial pneumonia, Severe (influenza virus; mouse, in vivo, 26 mg/kg) | Pulmonary hemorrhage, Mild (influenza virus; mouse, in vivo, 26 mg/kg) | Pulmonary hemorrhage, Moderate (influenza virus; mouse, in vivo, 26 mg/kg) | Pulmonary hemorrhage, Severe (influenza virus; mouse, in vivo, 26 mg/kg) | further results |
| --- | --- | --- | --- | --- | --- | --- | --- | --- | --- | --- | --- | --- | --- |
| COc1cc([C@H]2OC[C@H]3[C@@H]2CO[C@H]3c2ccc(OC)c(OC)c2)ccc1O [Serial No. 3, phillygenin] | 2 | 2 | 0 | 2 | 2 | 0 | 3 | 1 | 0 | 3 | 1 | 0 | – |
| COc1ccc([C@H]2OC[C@H]3[C@@H]2CO[C@H]3c2ccc(O[C@@H]3O[C@H](CO)[C@@H](O)[C@H](O)[C@H]3O)c(OC)c2)cc1OC [Serial No. 2, phillyrin] | 2 | 2 | 0 | 2 | 2 | 0 | 4 | 0 | 0 | 4 | 0 | 0 | – |
| COc1cc(O)cc(C2OCC3C(c4ccc(OC5OC(CO)C(O)C(O)C5O)c(OC)c4)OCC23)c1 [Serial No. 1, (7,8,7′,8′)-7,7′-bisepoxy-5′-hydroxy-3,3′hydroxy-bismethoxylignan, 4-O-β-D-glucoside] | – | – | – | – | – | – | – | – | – | – | – | – | Interstitial pneumonia, Mild (influenza virus; [1]): 4; Interstitial pneumonia, Moderate (influenza virus; [1]): 0; Interstitial pneumonia, Severe (influenza virus; [1]): 0; Pulmonary hemorrhage, Mild (influenza virus; [1]): 4; Pulmonary hemorrhage, Moderate (influenza virus; [1]): 0; Pulmonary hemorrhage, Severe (influenza virus; [1]): 0; Interstitial pneumonia, Mild (influenza virus; [2]): 2; Interstitial pneumonia, Moderate (influenza virus; [2]): 2; Interstitial pneumonia, Severe (influenza virus; [2]): 0; Pulmonary hemorrhage, Mild (influenza virus; [2]): 2; Pulmonary hemorrhage, Moderate (influenza virus; [2]): 2; Pulmonary hemorrhage, Severe (influenza virus; [2]): 0; Interstitial pneumonia, Mild (COVID-19 Delta virus): 2; Interstitial pneumonia, Moderate (COVID-19 Delta virus): 2; Interstitial pneumonia, Severe (COVID-19 Delta virus): 0; Pulmonary hemorrhage, Severe (COVID-19 Delta virus): 0 |

Like-named read-outs stand apart in the source and are kept apart here.
